## Ab-95 light chain CDR variants: yeast mating affinities

Target peptide (SARS-CoV-2 spike, HR2 region): PDVDLGDISGINAS

Each scFv is VH, three GGGGS repeats, VL, as in the parent Ab-95, and differs from it in the CDRs of the light chain only.
VH: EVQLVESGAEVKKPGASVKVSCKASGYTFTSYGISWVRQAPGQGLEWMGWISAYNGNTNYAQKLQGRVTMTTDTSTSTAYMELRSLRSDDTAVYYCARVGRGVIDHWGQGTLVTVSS
VL: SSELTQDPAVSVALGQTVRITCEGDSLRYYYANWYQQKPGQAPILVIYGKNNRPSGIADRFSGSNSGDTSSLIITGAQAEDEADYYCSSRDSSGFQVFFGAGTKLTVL

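The starting antibody came from a phage panning campaign against this peptide. In library AAYL52, one, two or three CDR residues were substituted; doubles and triples were drawn at random. The scFvs were displayed on barcoded MATa yeast, the peptide on MATalpha yeast. Mating (16 h, 30 °C) was followed by selection of diploids and sequencing of their barcodes. A regression on co-assayed BCL2-family reference pairs converts the normalised counts of each replicate to an apparent Kd. Each pool was mated in three replicate cultures.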

Changes read parent residue, position, new residue, counted from the first residue of the VL shown. Each Kd is an estimate from the mating assay, the geometric mean of the replicates in which the pair was seen; lower is stronger. "not detected" marks a missing value. The strain was present, yet no cells mated with the target were sequenced in any replicate, which points to weak or no binding. Nonspecific signal, from three strains lacking the peptide, appeared in 28% of pairings of library AAYL52, centred on 8.2 µM (5% of these signals below 800 nM); values are not corrected for it. Parent in this assay: reference entry 200 nM, copy in this library 180 nM.

| apparent Kd | replicates with signal | changes |
|---|---|---|
| 180 nM | 3/3 | N52V+S89C |
| 520 nM | 3/3 | D25V+R28Q+S93T |
| 310 nM | 3/3 | N51G+N52T+F95V |
| 1.0 µM | 3/3 | N51H+S92M+Q96N |
| not detected | 0/3 | N52P+P54K+S89M |
| 170 nM | 3/3 | G24M+N52E+S55G |
| 19 nM | 3/3 | Y30G+Y31P+S55Y |
| 5.6 µM | 2/3 | Y29L+N33C+P54G |
| 3.5 µM | 1/3 | G49A+R90I+S93N |
| 12 µM | 2/3 | N33Q+G49T+F98H |
| 4.4 µM | 3/3 | K50I+N52Y+Q96R |
| 5.0 µM | 1/3 | L27D+N51L+R90S |
| not detected | 0/3 | R90I+G94C+F98Y |
| 1.4 µM | 3/3 | E23M+N51C+Q96E |
| 220 nM | 3/3 | L27N+Y31N+F98D |
| 1.1 µM | 3/3 | Y31I+K50H+N51D |
| not detected | 0/3 | R28I+R53M+R90T |
| 230 nM | 3/3 | N33G+N51A+N52M |
| 3.8 µM | 3/3 | Y30W+S88G+S93E |
| 5.7 µM | 2/3 | D25M+S55K+S88D |
| 15 µM | 3/3 | R53G+R90V+S93V |
| not detected | 0/3 | N51T+S88T+D91V |
| 4.7 µM | 2/3 | Y29T+P54C |
| 1.8 µM | 1/3 | D25C+R53H+S93F |
| 2.2 µM | 2/3 | R28H+N33H+S92C |
| 3.6 µM | 3/3 | E23L+P54M+D91T |
| 4.9 µM | 2/3 | Y30F+P54R+S88W |
| 6.1 µM | 2/3 | S26F+Y29P+S92H |
| 21 µM | 2/3 | L27Q+S93Y+G94K |
| 6.5 µM | 1/3 | Y29A+R53H+P54S |
| 1.7 µM | 3/3 | R28N+S89T+G94A |
| 12 µM | 3/3 | E23F+V97C |
| not detected | 0/3 | E23I+S26K+P54Q |
| 1.4 µM | 2/3 | A32E+S89C+F98S |
| not detected | 0/3 | E23V+G49K+S93I |
| 17 µM | 2/3 | Y29W+Y30L+F98V |
| 92 nM | 3/3 | Y30V+G94W+F95W |
| 23 µM | 1/3 | N52C+D91G+Q96G |
| 400 nM | 3/3 | Y29F+F95Q |
| 4.2 µM | 2/3 | R28S+S88Y+V97E |
| 33 µM | 2/3 | S26L+K50P+P54A |
| 14 µM | 3/3 | D25M+R28I+K50Q |
| 220 nM | 3/3 | Y29W+S92R |
| 44 nM | 3/3 | Y30V+Y31H |
| 30 µM | 2/3 | G24Y+S88E+D91V |
| 7.9 µM | 3/3 | R28A+D91W+V97H |
| 6.5 µM | 1/3 | E23L+N52A+R53F |
| 4.0 µM | 3/3 | G24K+D25L+S89G |

The 8 strongest on average among those seen in every replicate, once more:

{"changes": "Y30G+Y31P+S55Y", "apparent Kd": "19 nM", "replicates with signal": "3/3"}
{"changes": "Y30V+Y31H", "apparent Kd": "44 nM", "replicates with signal": "3/3"}
{"changes": "Y30V+G94W+F95W", "apparent Kd": "92 nM", "replicates with signal": "3/3"}
{"changes": "G24M+N52E+S55G", "apparent Kd": "170 nM", "replicates with signal": "3/3"}
{"changes": "N52V+S89C", "apparent Kd": "180 nM", "replicates with signal": "3/3"}
{"changes": "Y29W+S92R", "apparent Kd": "220 nM", "replicates with signal": "3/3"}
{"changes": "L27N+Y31N+F98D", "apparent Kd": "220 nM", "replicates with signal": "3/3"}
{"changes": "N33G+N51A+N52M", "apparent Kd": "230 nM", "replicates with signal": "3/3"}

From the AlphaSeq antibody data of Engelhart et al. 2022 (doi:10.1038/s41597-022-01779-4), copy in the FLAb collection.